Measurements published in patent US9206139B2, “Aggrecanase inhibitors” (Eli Lilly and Company, priority 2012, dated 2015).

Amino acid sequences for entries named in this document (tags omitted). Residues count along the entry.
UniProt O75173, 213-837, species assumed: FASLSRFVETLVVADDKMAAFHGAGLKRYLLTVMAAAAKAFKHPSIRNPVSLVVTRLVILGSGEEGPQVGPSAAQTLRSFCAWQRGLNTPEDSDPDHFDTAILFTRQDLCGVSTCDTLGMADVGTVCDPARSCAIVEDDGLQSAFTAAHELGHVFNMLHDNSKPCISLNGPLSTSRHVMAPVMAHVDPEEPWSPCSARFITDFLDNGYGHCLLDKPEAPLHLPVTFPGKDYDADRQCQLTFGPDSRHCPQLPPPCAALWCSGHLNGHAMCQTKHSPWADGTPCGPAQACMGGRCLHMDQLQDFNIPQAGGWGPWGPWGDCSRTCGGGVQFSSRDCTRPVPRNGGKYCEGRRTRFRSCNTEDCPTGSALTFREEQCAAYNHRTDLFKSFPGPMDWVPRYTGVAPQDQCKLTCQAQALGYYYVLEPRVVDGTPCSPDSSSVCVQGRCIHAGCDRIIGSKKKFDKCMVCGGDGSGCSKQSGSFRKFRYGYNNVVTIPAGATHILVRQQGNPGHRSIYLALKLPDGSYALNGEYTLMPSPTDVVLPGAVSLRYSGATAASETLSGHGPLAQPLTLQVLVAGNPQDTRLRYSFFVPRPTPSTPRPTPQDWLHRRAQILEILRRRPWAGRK
UniProt Q9UNA0, 262-930, species assumed: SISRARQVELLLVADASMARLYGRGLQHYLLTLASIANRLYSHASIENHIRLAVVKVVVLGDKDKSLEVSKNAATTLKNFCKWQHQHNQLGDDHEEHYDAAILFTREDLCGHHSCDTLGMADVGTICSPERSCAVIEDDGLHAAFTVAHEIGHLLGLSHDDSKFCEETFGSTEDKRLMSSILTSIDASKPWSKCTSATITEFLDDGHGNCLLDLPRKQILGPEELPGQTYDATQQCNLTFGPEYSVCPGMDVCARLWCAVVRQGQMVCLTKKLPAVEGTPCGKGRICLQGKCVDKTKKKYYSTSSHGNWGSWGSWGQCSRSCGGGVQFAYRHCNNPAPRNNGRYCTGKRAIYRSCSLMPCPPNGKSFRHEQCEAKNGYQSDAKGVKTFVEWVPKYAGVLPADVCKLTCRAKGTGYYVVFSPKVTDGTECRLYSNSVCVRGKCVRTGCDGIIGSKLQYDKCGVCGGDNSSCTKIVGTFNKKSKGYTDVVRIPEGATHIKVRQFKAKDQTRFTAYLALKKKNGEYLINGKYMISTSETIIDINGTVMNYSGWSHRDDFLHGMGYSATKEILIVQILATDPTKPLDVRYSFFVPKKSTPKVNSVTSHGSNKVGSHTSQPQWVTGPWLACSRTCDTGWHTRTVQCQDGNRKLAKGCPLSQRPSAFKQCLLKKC
UniProt A0A8I3Q3A2, 1-992: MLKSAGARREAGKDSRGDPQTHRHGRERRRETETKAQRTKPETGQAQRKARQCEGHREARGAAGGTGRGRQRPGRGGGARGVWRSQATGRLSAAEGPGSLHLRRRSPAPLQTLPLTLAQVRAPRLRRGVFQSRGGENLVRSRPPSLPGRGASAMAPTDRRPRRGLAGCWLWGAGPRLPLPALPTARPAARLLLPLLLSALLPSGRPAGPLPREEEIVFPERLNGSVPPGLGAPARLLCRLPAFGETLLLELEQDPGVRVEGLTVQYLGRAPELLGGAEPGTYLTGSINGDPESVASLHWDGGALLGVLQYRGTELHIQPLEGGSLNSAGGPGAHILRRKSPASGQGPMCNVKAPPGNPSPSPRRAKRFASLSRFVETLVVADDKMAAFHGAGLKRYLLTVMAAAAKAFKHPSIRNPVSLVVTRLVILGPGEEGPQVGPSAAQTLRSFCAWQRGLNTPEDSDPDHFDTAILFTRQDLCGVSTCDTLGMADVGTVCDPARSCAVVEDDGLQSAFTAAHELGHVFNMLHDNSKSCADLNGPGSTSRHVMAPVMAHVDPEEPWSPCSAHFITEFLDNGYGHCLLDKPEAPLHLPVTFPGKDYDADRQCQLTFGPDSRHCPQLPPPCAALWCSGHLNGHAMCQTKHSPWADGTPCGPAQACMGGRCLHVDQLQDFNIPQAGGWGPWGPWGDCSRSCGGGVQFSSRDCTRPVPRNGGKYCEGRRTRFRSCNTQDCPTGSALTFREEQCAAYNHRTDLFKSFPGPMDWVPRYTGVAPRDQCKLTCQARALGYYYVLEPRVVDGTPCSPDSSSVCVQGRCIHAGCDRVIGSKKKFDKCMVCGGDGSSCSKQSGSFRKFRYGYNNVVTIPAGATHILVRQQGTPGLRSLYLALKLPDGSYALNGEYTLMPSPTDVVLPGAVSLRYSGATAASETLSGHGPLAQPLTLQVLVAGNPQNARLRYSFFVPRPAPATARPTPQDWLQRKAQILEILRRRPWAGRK

Key:
Assay type in all cases: biochemical
[1] = biological target: ADAMTS-4 (Homo sapiens (Human), UniProt O75173); assay: ADAMTS-4 AlphaScreen assay; details: buffer
Procedure: (§1) ADAMTS-4 and ADAMTS-5 AlphaScreen Assay:
(§2) The plate is covered with aluminum foil tape and the binding is allowed to incubate overnight. The plate is then read on an AlphaScreen Fusion Alpha reader from Perkin Elmer. Data is analyzed using ActivityBase™ software (IDBS Alameda, Calif.). A similar assay is used with purified dog ADAMTS-4 enzyme.

[2] = biological target: T1, ADAMTS-5 (Homo sapiens (Human), UniProt Q9UNA0); assay: ADAMTS-5 AlphaScreen assay; details: buffer
Procedure: as §1, §2

[3] = biological target: T1, ADAMTS-5; assay: Rat plasma shift AlphaScreen assay; details: ADAMTS-5 in 50% Lewis rat plasma
Procedure: (§3) Rat and Dog Plasma Shift AlphaScreen Assay
(§4) The assay is completed in the same manner using 10 nM ADAMTS-5 instead of 2.1 nM. A similar assay is used with dog ADAMTS-4 in the presence of 25% dog plasma.

[4] = biological target: T2, dog ADAMTS-4 (Canis lupus familiaris, UniProt A0A8I3Q3A2); assay: Dog plasma shift AlphaScreen assay; details: dog ADAMTS-4 in 25% dog plasma
Procedure: as §3, §4

[5] = biological target: T2, dog ADAMTS-4; assay: Dog ADAMTS-4 AlphaScreen assay; details: purified dog ADAMTS-4 enzyme
Procedure: as §2

| SMILES | IC50 [1] [nM] | IC50 [2] [nM] | IC50 [3] [nM] | IC50 [4] [nM] | IC50 [5] [nM] |
| --- | --- | --- | --- | --- | --- |
| C[C@H](Cc1ccc(C(F)(F)F)cc1)C(=O)NC[C@@]1(C2CC2)NC(=O)NC1=O [Example 1, (2R)—N-[[(4R)-4-cyclopropyl-2,5-dioxo-imidazolidin-4-yl]methyl]-2-methyl-3-[4-(trifluoromethyl)phenyl]propanamide] | 2 |  |  |  |  |
| O=C1NC(=O)[C@](CNC(=O)[C@@H](Cc2ccc(C(F)(F)F)cc2)C2CC2)(C2CC2)N1 [Example 3, (2S)-2-cyclopropyl-N-[[(4R)-4-cyclopropyl-2,5-dioxo-imidazolidin-4-yl]methyl]-3-[4-(trifluoromethyl)phenyl]propanamide] | 2 | 2 | 18 | 101 | 2 |
